Test [1] has as its target T1, Muscarinic acetylcholine receptor M1 and M3 (Homo sapiens) (UniProt P20309+P11229). As to the kind of experiment: Selectivity ratio of Ki for human muscarinic M3 receptor to Ki for human muscarinic M1 receptor.
Test [2] has as its target Muscarinic acetylcholine receptors; M1 & M2 (Homo sapiens) (UniProt P11229+P08172). As to the kind of experiment: Selectivity ratio of Ki for human muscarinic M2 receptor to Ki for human muscarinic M1 receptor.
In test [3] the target is T1, Muscarinic acetylcholine receptor M1 and M3 (Homo sapiens). As to the kind of experiment: Selectivity ratio of Ki for human muscarinic M1 receptor to Ki for human muscarinic M3 receptor.
The species entered for a further test is Homo sapiens. As to the kind of experiment: Selectivity ratio of Ki for human muscarinic M4 receptor to Ki for human muscarinic M1 receptor.

Sequences of proteins named here, by UniProt entry; tags and fusion partners are left off. A change or cut given only in a name is not applied to a line headed by its entry.
UniProt P20309, whole entry, looked up: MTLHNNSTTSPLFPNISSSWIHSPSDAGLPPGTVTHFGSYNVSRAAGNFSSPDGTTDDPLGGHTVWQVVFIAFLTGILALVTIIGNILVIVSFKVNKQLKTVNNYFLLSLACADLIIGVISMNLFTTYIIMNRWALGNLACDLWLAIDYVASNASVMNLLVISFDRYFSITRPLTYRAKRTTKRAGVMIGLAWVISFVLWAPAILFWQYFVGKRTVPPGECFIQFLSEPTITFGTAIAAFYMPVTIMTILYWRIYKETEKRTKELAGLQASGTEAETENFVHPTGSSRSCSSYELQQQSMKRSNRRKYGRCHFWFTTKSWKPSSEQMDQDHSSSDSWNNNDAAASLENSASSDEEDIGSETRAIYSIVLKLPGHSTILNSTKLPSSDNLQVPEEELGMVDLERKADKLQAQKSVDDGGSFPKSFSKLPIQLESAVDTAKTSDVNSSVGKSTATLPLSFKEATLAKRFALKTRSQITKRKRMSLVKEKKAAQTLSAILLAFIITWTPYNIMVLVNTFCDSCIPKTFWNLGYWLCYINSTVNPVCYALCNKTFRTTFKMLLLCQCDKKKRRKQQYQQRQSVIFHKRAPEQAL
UniProt P11229: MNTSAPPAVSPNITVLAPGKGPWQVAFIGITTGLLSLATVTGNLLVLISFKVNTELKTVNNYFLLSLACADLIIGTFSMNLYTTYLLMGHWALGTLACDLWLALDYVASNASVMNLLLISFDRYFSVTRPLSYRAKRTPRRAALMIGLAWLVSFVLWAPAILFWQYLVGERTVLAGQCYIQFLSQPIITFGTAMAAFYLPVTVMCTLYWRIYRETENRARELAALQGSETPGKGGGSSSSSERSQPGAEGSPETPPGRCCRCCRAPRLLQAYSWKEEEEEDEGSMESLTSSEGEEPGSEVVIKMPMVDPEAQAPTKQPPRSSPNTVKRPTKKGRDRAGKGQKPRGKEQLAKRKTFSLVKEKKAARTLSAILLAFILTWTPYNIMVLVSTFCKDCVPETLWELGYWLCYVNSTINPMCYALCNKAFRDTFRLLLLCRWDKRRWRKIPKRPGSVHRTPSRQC
UniProt P08172, whole entry, looked up: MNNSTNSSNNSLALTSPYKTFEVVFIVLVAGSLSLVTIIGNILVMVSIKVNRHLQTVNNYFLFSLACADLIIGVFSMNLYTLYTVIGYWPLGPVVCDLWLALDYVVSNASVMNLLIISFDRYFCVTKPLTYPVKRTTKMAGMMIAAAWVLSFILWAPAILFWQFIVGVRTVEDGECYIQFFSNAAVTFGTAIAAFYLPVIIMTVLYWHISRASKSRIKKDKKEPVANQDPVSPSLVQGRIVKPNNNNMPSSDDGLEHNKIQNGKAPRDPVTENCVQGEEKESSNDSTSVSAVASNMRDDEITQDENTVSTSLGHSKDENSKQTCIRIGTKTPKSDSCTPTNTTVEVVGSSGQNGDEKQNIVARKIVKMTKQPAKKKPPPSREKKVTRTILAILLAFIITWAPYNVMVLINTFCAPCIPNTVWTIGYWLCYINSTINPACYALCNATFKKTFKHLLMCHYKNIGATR

For `CCN(CC)CCOC(=O)C(c1ccccc1)N1CCCCC1` (stereo unspecified), the Ratio Ki in test [1] came out at 0.69; in test [2] it was 3.78; in test [3], 1.46.
For the molecule `CCN(CC)CCOC(=O)C(C)(c1ccccc1)c1ccccc1`, the Ratio Ki in the test filed under Homo sapiens amounted to 41.6; in test [1] it was 513; in test [2] it was 7.07; in test [3], 0.00195.
`CCN(CC)CCOC(=O)c1ccccc1Sc1ccc(Cl)cc1`: the Ratio Ki was found to be 0.2 in test [1], 2.58 in test [2] and 4.76 in test [3].
For `C[N+](C)(C)CCOC(=O)C(c1ccccc1)c1ccccc1`, the Ratio Ki was determined as 292 in the test listed under Homo sapiens, 4.4 in test [1] and 0.223 in test [3].
As for `CC[C@H](C)C(C(=O)OCCCN(CC)CC)c1ccccc1` (stereo partly specified), the figures for the Ratio Ki in test [1] and in test [3] were 0.56 and 1.79, respectively.
The corresponding values for `CCN(CC)CCOC(=O)C(c1ccccc1)C1(O)CCCCC1` (stereo unspecified) are 1.08 and 0.926.
With `CC[N+](C)(CC)CCOC(=O)C(O)(c1ccccc1)c1ccccc1`, the figures for the Ratio Ki in test [1] and in test [3] were 2.7 and 0.375, respectively.
For `CCN(CC)CCOC(=O)C(CC)(c1ccccc1)c1ccccc1`, the Ratio Ki in the test listed under Homo sapiens was 1.78; in test [1] it was 1.46; in test [2], 1.46; in test [3], 0.683.
On to `OC(CCN1CCCCC1)(c1ccccc1)C1CC2C=CC1C2` (stereo unspecified), for which the values for the Ratio Ki in test [1] and in test [3] were 2.5 and 0.397, respectively.
For the molecule `CC[N+](C)(CC)CCOC(=O)C(c1ccccc1)c1ccccc1`, the Ratio Ki in the test filed under Homo sapiens came to 98.2; in test [1] it was 16.8; in test [2] it was 31.2; in test [3], 0.0214.
For `CCN(CC)CCOC(=O)C(C)(c1ccccc1)c1ccc(O)cc1` (stereo unspecified) the same measures were 642, 59.2, 5.33 and 0.0169.
As to `CC[N+](CC)(CC)CCOC(=O)C(c1ccccc1)c1ccccc1`, the values for the Ratio Ki in test [1], in test [2] and in test [3] were 0.1, 128 and 10.6, respectively.
